Target: murine SR-BI (Mus musculus, UniProt Q61009)
Test: DiI-HDL uptake assay (primary assay)
Details: read-out: IC50, primary assay (DiI-HDL uptake / HDL-mediated lipid uptake); compound present during DiI-HDL exposure

Sequences of proteins named here, by UniProt entry; tags and fusion partners are left off.
UniProt Q61009, whole entry: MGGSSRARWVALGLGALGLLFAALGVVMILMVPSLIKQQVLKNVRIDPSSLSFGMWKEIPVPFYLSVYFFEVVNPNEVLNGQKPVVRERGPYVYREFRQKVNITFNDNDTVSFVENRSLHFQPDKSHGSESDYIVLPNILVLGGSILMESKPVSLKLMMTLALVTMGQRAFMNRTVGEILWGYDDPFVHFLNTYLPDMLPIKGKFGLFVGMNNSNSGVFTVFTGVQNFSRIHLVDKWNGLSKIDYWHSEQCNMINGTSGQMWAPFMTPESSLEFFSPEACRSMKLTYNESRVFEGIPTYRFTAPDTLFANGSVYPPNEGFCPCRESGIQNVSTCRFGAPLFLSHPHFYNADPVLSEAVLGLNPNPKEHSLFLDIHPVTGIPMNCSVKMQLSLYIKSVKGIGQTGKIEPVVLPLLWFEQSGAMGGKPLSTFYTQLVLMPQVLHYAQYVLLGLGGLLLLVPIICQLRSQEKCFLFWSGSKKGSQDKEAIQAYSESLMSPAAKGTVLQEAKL

IC50 | SMILES
40 nM | CC(=O)N1CCc2cc(-c3nc(NC(=O)c4cccc(OC(F)(F)F)c4)sc3C)ccc21
8 nM | CCC(=O)N1CC(C)(C)c2cc(-c3csc(NC(=O)c4cc(OC)cc(OC)c4)n3)ccc21

SMILES | IC50
CCC(=O)Nc1ccc(-c2csc(NC(=O)c3cccc(OC)c3)n2)cc1 | 66 nM
